The text below walks through data of PubChem BioAssay (NCATS).

The nature of test [1]: Cell Viability - N2a (AID 540).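 Further: plate controls were DMSO alone for no effect and tamoxifen control for full effect; nearly all actives have a fitted effect of over 45% in size.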 Conditions: N2a mouse neuroblastoma cell viability; at 92.2 µM (top of the series). A digest of the protocol: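 Mouse neuroblastoma N2a cells, 1500/well, exposed to compounds 40 h at 37 °C in complete medium. Viability measured as cellular ATP by CellTiter-Glo luminescence; AC50 from Hill fits of concentration-response.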
Test [2] is described as follows: Cell Viability - HUV-EC-C (AID 542). Further: potency means the concentration at half of the fitted maximal effect; nearly all actives have a fitted effect of over 35% in size. A digest of the protocol:
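HUV-EC-C human vascular endothelial cells, 1000/well, exposed to compound for 40 hr at 37 °C in complete medium. Intracellular ATP was read by CellTiter-Glo luminescence. AC50 came from Hill-equation fits of concentration-response data.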

The nature of test [3]: Cell Viability - H-4-II-E (AID 543). Further: potency means the concentration at half of the fitted maximal effect; nearly all actives have a fitted effect of over 35% in size. The gist of the method: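 Rat hepatoma H-4-II-E cells, 1500 per well, treated 40 h at 37 °C in complete medium. Cellular ATP read by CellTiter-Glo luminescence; AC50 from Hill fits of concentration-response.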
Test [4] in a line: Cell Viability - SH-SY5Y (AID 544). Further: potency means the concentration at half of the fitted maximal effect; nearly all actives have a fitted effect of over 55% in size. A digest of the protocol:
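SH-SY5Y human neuroblastoma cells (1500/well) incubated 5 h, then compound-treated 40 h at 37 °C in complete medium. Viability read as intracellular ATP by CellTiter-Glo luminescence after 20 min; AC50 from Hill-equation fits of qHTS concentration-response.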

Test [5] in a line: Cellular Toxicity (caspase-3) HepG2 (AID 654).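 Further: cells exposed to compound for 16 hours before reading; 0% = DMSO alone and 100% = caspase signal from 100 µM tamoxifen.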 Conditions: HepG2 caspase-3 activation, luminescence, 0% = DMSO only, 100% = tamoxifen; at 92.2 µM (top of the series). A digest of the protocol: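 HepG2 cells (1500/well) were treated 16 h at 37 °C in complete medium, then caspase 3/7 activity was read by Caspase-Glo luminescence. Data were normalized to DMSO and 100 uM tamoxifen; AC50 came from Hill-equation fits of qHTS concentration-response.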

Test [6] in a line: Cellular Toxicity (caspase-3) Jurkat (AID 655).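 Further: cells exposed to compound for 16 h at 37 °C before reading.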 The following applies: Jurkat caspase-3 activation, luminescence, DMSO = 0%, tamoxifen = 100%; at 92.2 µM (top of the series). A digest of the protocol: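 5000 Jurkat cells/well; compound 16 hr, 37 °C; Caspase-Glo 3/7 added, 20 min RT; luminescence read. Norm: DMSO = 0%, tamoxifen 100 uM = 100%. AC50, Hill model.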
Test [7] can be described thus: Cellular Toxicity (caspase-3) HUV-EC-C (AID 656). The following applies: HUV-EC-C cells, caspase-3 activation (apoptosis), vehicle = 0, 100 µM tamoxifen = 100%; at 92.2 µM (top of the series). The gist of the method:
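qHTS; HUV-EC-C, 1000 cells/well; 5 hr settle, 16 hr cmpd, 37°C; Caspase-Glo 3/7, 20 min RT; luminescence. Norm: DMSO = 0%, tamoxifen 100 uM = 100%. Hill-fit AC50.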

A short description of test [8]: Cellular Toxicity (caspase-3) BJ (AID 658).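 Further: cells exposed to compound for 16 hours.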 The following applies: BJ fibroblasts, luminescence, normalized: DMSO 0%, staurosporine 100%; at 91.7 µM (top of the series). A digest of the protocol: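 Readout: Caspase-Glo 3/7 luminescence increase in BJ cells after 16 hr treatment at 37 °C. Staurosporine and tamoxifen served as positive controls; AC50 values came from Hill modelling of data normalized to DMSO and 10 uM staurosporine.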

Test [9] is described as follows: Cellular Toxicity (caspase-3) MRC-5 (AID 659). The following applies: MRC-5 cells, luminescence, normalized: DMSO 0%, 10 µM staurosporine 100%; at 91.7 µM (top of the series). The gist of the method: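 Concentration-dependent caspase 3/7 activation is measured in human normal lung fibroblasts (MRC-5) following 16-hour treatment. AC50 values come from standard Hill-equation modeling of luminescence normalized to DMSO and 10 uM staurosporine.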

Test [10] in a line: Cellular Toxicity (caspase-3) Mesangial (AID 660).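 Further: cells exposed to compound for 16 h before the caspase read.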 Conditions: mesangial cells, normalized: DMSO 0%, 100 µM tamoxifen 100%; at 91.7 µM (top of the series). The gist of the method: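 Human renal glomerular mesangial cells, 1000/well, 5 h at 37 C before 16 h compound treatment. Caspase-Glo 3/7 luminescence after 20 min; normalized to DMSO and 100 uM tamoxifen, AC50 from Hill fit.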

Test [11] can be described thus: Cellular Toxicity (caspase-3) Hek293 (AID 664).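 Further: cells exposed to compound for 16 h at 37 °C before readout.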 Conditions: HEK293 caspase-3 activation, DMSO = 0%, 100 µM tamoxifen = 100%; at 92.2 µM (top of the series). The gist of the method: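 HEK293 cells in complete medium treated 16 h at 37 °C, then Caspase-Glo 3/7 luminescence read after 20 min at room temperature. Normalized to DMSO and 100 uM tamoxifen; AC50 from Hill fit of concentration-response.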

Test [12] is described as follows: Cellular Toxicity (caspase-3) N2a (AID 665).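 Further: compound exposure lasted 16 h at 37 °C before readout.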 The following applies: N2a cells, luminescence, normalized: DMSO 0%, 10 µM staurosporine 100%; at 92.2 µM (top of the series). The gist of the method:
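Mouse N2a neuroblastoma cells, 1500 per well, treated 16 h at 37 °C in complete medium; caspase-3/7 activity by Caspase-Glo luminescence after 1 h. Normalized to DMSO and 10 uM staurosporine; AC50 from Hill fits.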

A short description of test [13]: Cellular Toxicity (caspase-3) NIH 3T3 (AID 666).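 Further: caspase signal read after 16 h compound exposure; 0% = DMSO basal and 100% = 100 µM tamoxifen stimulation.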 Conditions: NIH 3T3 caspase-3 activation, apoptosis/toxicity, 0% DMSO, 100% is 100 µM tamoxifen; at 92.2 µM (top of the series). A digest of the protocol:
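Mouse NIH 3T3 fibroblasts (1000/well) treated 16 h at 37 C; caspase-3/7 activity measured by Caspase-Glo 3/7 luminescence after 20 min. Normalized to DMSO and 100 uM tamoxifen; AC50 from Hill fits.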

Test [14] can be described thus: Cellular Toxicity (caspase-3) Renal Proximal Tubule (AID 667).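 Further: cells exposed to compound for 16 hours at 37 °C before detection.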 Conditions: renal proximal tubule cells, primary cells freshly taken from rat, solvent-only wells 0%, staurosporine 100%; at 91.7 µM (top of the series). A digest of the protocol:
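AC50 derived by standard Hill fit of concentration-response data, normalized between DMSO basal and 10 uM staurosporine as 100% stimulation. Cells: primary rat kidney proximal tubule, 16 h treatment at 37 °C.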

The nature of test [15]: MultiTox-Fluor Cytotoxicity Assay - LYMP1-001 - Dead Cells (AID 946).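 Further: 0% = DMSO and 100% = tetraoctylammonium bromide.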 Conditions: LYMP1-001 lymphoblastoid cells, dead-cell protease fluorescence; at 92.2 µM (top of the series). The gist of the method: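 Seed 2500 LYMP1-001 cells/well, incubate 5 hr at 37 C; add compound, 16 hr at 37 C; add MultiTox-Fluor reagent, 60 min RT; read dead-cell fluorescence Ex/Em=485/520. Normalize to DMSO and 15 uM tetraoctylammonium bromide.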

Test [16] can be described thus: MultiTox-Fluor Cytotoxicity Assay - LYMP1-003 - Live Cells (AID 962).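 Further: cells exposed to compound for 16 hours at 37 °C; 0% = DMSO only and full loss = 92 µM tetraoctylammonium bromide; cytotoxic hits lower the live-cell protease signal.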 The following applies: LYMP1-003 lymphoblastoid cells, MultiTox-Fluor live-cell protease fluorescence; at 92.2 µM (top of the series). The gist of the method:
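LYMP1-003 lymphoblastoid cells, 2500/well in complete medium, treated 16 h at 37 C; live-cell protease cleavage of GF-AFC read by fluorescence (Ex/Em 405/510) after 60 min reagent; AC50 from Hill fits of concentration-response.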

Test [17] can be described thus: Cell Viability - LYMP1-003 - Assay at 24 hr (AID 963).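 Further: plate controls were DMSO only for no effect and tetraoctylammonium bromide positive control for full effect.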 The following applies: LYMP1-003 lymphoblastoid cell viability; at 92.2 µM (top of the series). A digest of the protocol: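 Human lymphoblastoid LYMP1-003 cells, 2500/well, treated 24 h at 37 C in complete medium. Viability read as intracellular ATP by CellTiter-Glo luminescence after 30 min at room temperature; AC50 from Hill-equation fits of qHTS concentration-response.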

SMILES strings stand for the structures. This is a selection; strong and weak results do not stand in their true shares. Results filed as inconclusive are left out. Calls of active or inactive are those of the source. The call rests on the fitted dose curve; in most records, active means well fitted curve in the direction sought with a large enough effect; inconclusive means small, poorly fitted or top-dose-only effect, or another doubt; inactive means no such curve, though single readings can be large; an effect the other way counts as inactive or inconclusive.

In the case of `CN(N=O)C(=N)N[N+](=O)[O-]`, the activity change, negative = cytotoxicity in test [1] was active: -115%. In addition, the Potency in [2] is active: 25.1 µM; in test [3] it was active: 39.8 µM; in test [4], active: 12.6 µM. Also, the caspase-3 activation is inactive: 5.42% in test [5]; inactive: -2.9% in test [6]; inactive: 6.76% in test [7]; inactive: 2.47% in test [8]; inactive: 2.68% in test [9]; inactive: 11.8% in [10]. In addition, the caspase-3 activation in test [11] is inactive: 1.03%; in test [12], inactive: -7.46%; in test [13] it was inactive: 8.21%; in test [14], inactive: 7.26%. Moreover, in test [15], the cytotoxicity (dead cells) is inactive: 12.1%. For the same compound, in test [16], the activity change, negative = fewer live cells is inactive: -23.8%. Further, the viability change, negative = cytotoxic in test [17] is inactive: -20.9%.
